Values of other authors in article PMC9781958, “Next-Generation Heterocyclic Electrophiles as Small-Molecule Covalent MurA Inhibitors” (Pharmaceuticals, 2022).

The chains behind the UniProt entries cited, without tags or fusion partners.
UniProt P0A749, whole entry: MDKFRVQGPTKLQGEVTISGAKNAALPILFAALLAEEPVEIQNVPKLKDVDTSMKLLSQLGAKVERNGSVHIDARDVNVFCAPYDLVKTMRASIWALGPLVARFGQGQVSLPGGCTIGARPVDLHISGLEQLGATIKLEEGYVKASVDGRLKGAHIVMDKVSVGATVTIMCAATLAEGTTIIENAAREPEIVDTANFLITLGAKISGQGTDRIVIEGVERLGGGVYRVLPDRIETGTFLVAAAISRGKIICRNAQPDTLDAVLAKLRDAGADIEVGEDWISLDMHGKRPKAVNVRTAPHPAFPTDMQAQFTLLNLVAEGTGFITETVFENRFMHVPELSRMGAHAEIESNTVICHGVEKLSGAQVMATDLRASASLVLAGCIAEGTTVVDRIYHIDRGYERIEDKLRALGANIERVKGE

Target: E. coli MurA (UDP-N-acetylglucosamine 1-carboxyvinyltransferase, EC:2.5.1.7) (Escherichia coli, UniProt P0A749)
Settings: cited from earlier work

Row | SMILES | IC50
1 | Ic1ncccn1 | 309 µM
2 | Ic1ccncc1 | 70 µM
3 | C#Cc1ccncc1 | 408 µM
4 | Brc1cncs1 | 77 µM
